Test [1] concerns the target human AChE derived from erythrocytes (Homo sapiens, UniProt P22303). The conditions noted are these: erythrocyte form; comparison value; cited from earlier work.
For test [2], the target named is T1, plant derived recombinant AChE (rAChE) (Homo sapiens, UniProt P22303).
T1 construct: We expressed the engineered AChE-E4 form, encoded by exons 2-4 of the human gene; made in house; host or cells: transgenic tomato (Lycopersicum esculentum cv. Micro-Tom), cleared leaf extracts
Description: Inhibition of plant-derived recombinant AChE (Ellman assay). The test is classed as biochemical.

Amino acid sequences for entries named in this document (tags omitted). Residues count along the entry.
UniProt P22303, 32-617 isoform P22303-2 limits assumed: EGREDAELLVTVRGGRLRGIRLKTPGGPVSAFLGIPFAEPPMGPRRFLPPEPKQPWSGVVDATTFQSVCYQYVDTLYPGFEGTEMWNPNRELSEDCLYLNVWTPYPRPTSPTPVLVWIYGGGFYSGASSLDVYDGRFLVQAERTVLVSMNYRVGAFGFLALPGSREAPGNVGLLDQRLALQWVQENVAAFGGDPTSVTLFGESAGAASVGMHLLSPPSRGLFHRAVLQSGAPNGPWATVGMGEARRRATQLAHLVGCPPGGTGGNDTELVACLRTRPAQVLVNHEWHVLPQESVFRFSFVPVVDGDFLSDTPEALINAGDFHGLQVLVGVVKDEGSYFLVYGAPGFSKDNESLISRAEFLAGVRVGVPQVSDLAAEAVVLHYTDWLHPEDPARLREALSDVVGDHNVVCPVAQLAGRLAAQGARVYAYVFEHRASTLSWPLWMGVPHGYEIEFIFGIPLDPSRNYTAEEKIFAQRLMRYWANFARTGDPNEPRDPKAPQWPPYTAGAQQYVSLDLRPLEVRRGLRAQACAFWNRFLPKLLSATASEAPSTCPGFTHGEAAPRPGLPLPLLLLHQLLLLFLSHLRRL
UniProt P22303, 32-574: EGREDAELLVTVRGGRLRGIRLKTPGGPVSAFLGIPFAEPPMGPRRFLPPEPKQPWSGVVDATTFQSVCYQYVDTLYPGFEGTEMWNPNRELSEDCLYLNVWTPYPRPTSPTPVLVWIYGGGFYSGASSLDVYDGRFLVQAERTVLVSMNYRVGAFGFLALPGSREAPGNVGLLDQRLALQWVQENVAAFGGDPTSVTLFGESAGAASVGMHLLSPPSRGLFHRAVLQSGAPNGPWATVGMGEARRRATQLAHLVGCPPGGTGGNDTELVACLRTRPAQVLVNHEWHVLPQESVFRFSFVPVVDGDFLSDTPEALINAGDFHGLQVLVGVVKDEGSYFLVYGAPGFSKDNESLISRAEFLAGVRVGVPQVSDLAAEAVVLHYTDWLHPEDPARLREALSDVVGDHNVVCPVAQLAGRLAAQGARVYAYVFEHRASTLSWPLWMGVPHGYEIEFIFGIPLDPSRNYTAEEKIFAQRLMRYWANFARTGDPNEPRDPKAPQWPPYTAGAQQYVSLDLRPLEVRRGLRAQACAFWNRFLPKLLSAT
UniProt P22303, 32-614: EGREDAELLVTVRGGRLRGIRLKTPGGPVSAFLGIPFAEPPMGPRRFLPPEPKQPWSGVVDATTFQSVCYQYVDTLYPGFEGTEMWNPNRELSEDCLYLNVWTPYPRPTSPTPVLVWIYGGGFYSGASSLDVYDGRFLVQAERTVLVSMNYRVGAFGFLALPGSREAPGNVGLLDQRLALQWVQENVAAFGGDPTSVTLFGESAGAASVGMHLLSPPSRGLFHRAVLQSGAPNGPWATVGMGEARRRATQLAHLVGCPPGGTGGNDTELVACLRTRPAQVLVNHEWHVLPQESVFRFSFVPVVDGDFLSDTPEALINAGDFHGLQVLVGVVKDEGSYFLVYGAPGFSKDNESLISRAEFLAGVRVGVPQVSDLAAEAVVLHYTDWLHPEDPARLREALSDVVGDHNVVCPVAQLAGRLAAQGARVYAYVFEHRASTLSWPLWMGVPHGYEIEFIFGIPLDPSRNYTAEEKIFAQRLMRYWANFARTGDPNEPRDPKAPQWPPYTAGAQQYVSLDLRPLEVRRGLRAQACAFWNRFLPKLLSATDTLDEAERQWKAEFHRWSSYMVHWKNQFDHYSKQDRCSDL

For test [3], the target named is recombinant human synaptic enzyme transiently expressed in mammalian cell cultures (Homo sapiens, UniProt P22303). The conditions noted are these: comparison value; cited from earlier work.

On to `C=CC[N+](C)(C)c1ccc(CCC(=O)CCc2ccc([N+](C)(C)CC=C)cc2)cc1.[Br-].[Br-]` [BW284c51, 1,5-bis(allyldimethylammiumphenyl)pentan-3 one dibromide], for which the Ki in test [1] is 0.005 µM; in test [2] (1, 0.33 and 0.25 mM acetylthiocholine, inhibitor 10^-4 to 10^-10 M), 0.016 µM; in test [3], 0.01 µM. Further, the “inhibition of plant derived rAChE” value in test [2] (1 mM acetylthiocholine) is given as “can inhibit”.

Usually Ki stands for a measure of affinity in units of concentration, obtained from inhibition or displacement.
